Patent US20240398845A1, “USE OF SGLT-2 INHIBITORS FOR THE PREVENTION AND/OR TREATMENT OF CARDIAC DISEASES IN NON-HUMAN MAMMALS EXCLUDING FELINES, IN PARTICULAR CANINES” (BOEHRINGER INGELHEIM VETMEDICA GMBH, priority 2021, published 2024)

Tested on: dogs with occult or overt dilated cardiomyopathy (DCM)
Conditions: case 100-006, overt DCM, velagliflozin oral 0.05 mg/kg bodyweight/day, torasemide 0.08 mg/kg/day added at D45

N#Cc1ccc([C@@H]2O[C@H](CO)[C@@H](O)[C@H](O)[C@H]2O)cc1Cc1ccc(C2CC2)cc1 [velagliflozin, Velagliflozin]
time to end of study (euthanized at day 69): 69 days | treatment period until adverse event (severe weakness, tachypnea, reduced perfusion, atrial fibrillation, abdominal distension due to ascites) (attributed to progression of the heart disease): 68 days
